The numbers were not newly measured in US10722492B2, “Andrographolide treats progressive forms of multiple sclerosis” (INNOBIOSCIENCES, LLC, priority 2016, dated 2020), which cites them from elsewhere.

One series deals with SP & PPMS forms. Particulars: summary of prior art; cited from earlier work.
The test system of series [1] is subjects with Secondary progressive MS with relapses. The conditions noted are these: vs placebo, cited from earlier work.
Series [2] relates to patients with Secondary progressive MS with relapses. The conditions noted are these: cited from earlier work.

B1: Interferon beta-1a (protein, UniProt P01574 22-187, looked up)
Interferon beta: MSYNLLGFLQRSSNFQCQKLLWQLNGRLEYCLKDRMNFDIPEEIKQLQQFQKEDAALTIYEMLQNIFAIFRQDSSSTGWNETIVENLLANVYHQINHLKTVLEEKLEKEDFTRGKLMSSLHLKRYYGRILHYLKAKEYSHCAWTIVRVEILRNFYFINRLTGYLRN
B1: the “slowing down / reduction of disability progression in progressive MS” value in the series with SP & PPMS forms is “failed to demonstrate efficacy”. In series [1] (p<0.001), the MRI activity entry is on record as “less MRI activity”. The fewer relapses in series [1] (two years, p=0.008) is 33%. Further, in series [1] (two years, p=0.033), the MSFC decrease is reported as 40.4%. Besides, the “MS Quality of Life scales” value in series [1] (two years) was “better outcome in eight of eleven”. Moreover, in series [2] (3 years, p=0.146), the disability progression entry was “did not significantly affect disability progression”. The MRI outcomes in series [2] (3 years) was “significant treatment benefit”. Further, in series [2] (reduced from 0.71, p<0.001), the relapse rate is 0.50 per year.
